Values quoted from earlier work, collected in patent US6927272B2, “Electronic component-use material and electronic component using it” (Matsushita Electric Industrial Co., Ltd., priority 2001, dated 2005).

Conditions: room temperature (20-30° C.)

In the case of kadethrin, the “Vapor Pressure” value is listed as 100,000 nPa.
